Results on one substance are retold here after US6387388B1, “Pesticidal formulation” (Merck & Co., Inc., priority 1995, dated 2002).

This data set in a line: Solubility in water.

“benzoate salt of 4″-deoxy-4″-epi-methylamino avermectin B1a/B1b [emamectin benzoate]”: the solubility in water result is on record as “about 100 ppm”.
